Experimental data as given in patent US8828401B2, “Cytotoxic peptides and antibody drug conjugates thereof” (Pfizer Inc., priority 2011, dated 2014).

Legend:
[1] = test system: N87 (gastric cancer); test: In vitro cell assay, MTS cell viability 96 hours after treatment; type: cell-based; conditions: read-out: N87 GMEAN IC50, N87 cells; geometric mean; cytotoxic peptides
Procedure: (§1) Cells were treated with 3-fold serially diluted antibody-drug conjugates or free compounds (i.e., no antibody conjugated to the drug) in duplicate at 10 concentrations. Cell viability was determined by CellTiter 96® AQueous One Solution Cell Proliferation MTS Assay (Promega, Madison Wis.) 96 hours after treatment. Relative cell viability was determined as percentage of untreated control.

[2] = test system: BT474 (breast cancer); test: as above; type: cell-based; conditions: unconjugated antibody at equivalent antibody concentrations; HERCEPTIN® in vitro studies
Procedure: as §1

[3] = test system: Her2+ MDAMB-361 DYT2 cell line; test: In vivo MDAMB-361 DYT2 tumor xenograft model; set-up: species or system irradiated nude mice; conditions: unconjugated antibody at equivalent antibody concentrations; HERCEPTIN® in vivo studies
Procedure: In vivo efficacy studies of antibody-drug conjugates were performed with the Her2+MDAMB-361 DYT2 cell line. For efficacy studies, 10 million tumor cells in 50% matrigel were implanted subcutaneously into 6-8 week old irradiated nude mice. When the tumor sizes reached between 250-350 mm^3 drugs or vehicle were administered through bolus tail vein injection. Mice were injected with 1 mg/kg of antibody drug conjugates treated four times every four days (Q4dx4). Tumor volume is measured twice a week for the first 50 days and once weekly thereafter by a Caliper device and calculated with the following formula: Tumor volume=(length×width)/2. Results were compared across studies by normalizing the tumor regression of the drug-treated mice by dividing the tumor volume by the vehicle-treated tumor volume (T/C).
Six compounds were tested in the three different MDA-MB-361-DYT2 xenograft studies to determine their anti-tumor activity. […] To compare the results of compounds in the three studies, anti-tumor activity was normalized by dividing the drug-treated tumor volume by the vehicle-treated tumor volume (T/C).

## CC[C@H](C)[C@@H]([C@@H](CC(=O)N1CCC[C@H]1[C@H](OC)[C@@H](C)C(=O)N[C@@H](Cc1ccccc1)C(=O)NC(C)(C)C)OC)N(C)C(=O)[C@@H](NC(=O)C(C)(C)NC)C(C)C [#144, N,2-dimethylalanyl-N-{(1S,2R)-4-{(2S)-2-[(1R,2R)-3-{[(1S)-1-benzyl-2-(tert-butylamino)-2-oxoethyl]amino}-1-methoxy-2-methyl-3-oxopropyl]pyrrolidin-1-yl}-2-methoxy-1-[(1S)-1-methylpropyl]-4-oxobutyl}-N-methyl-L-valinamide]
[1]
  IC50: 0.182 nM

## CC[C@H](C)[C@@H]([C@@H](CC(=O)N1CCC[C@H]1[C@H](OC)[C@@H](C)C(=O)N[C@@H](Cc1ccccc1)c1nccs1)OC)N(C)C(=O)[C@@H](NC(=O)[C@]1(C)CCCCN1)C(C)C [#188, (2S)—N-[(2S)-1-{[(3R,4S,5S)-3-methoxy-1-{(2S)-2-[(1R,2R)-1-methoxy-2-methyl-3-oxo-3-{[(1S)-2-phenyl-1-(1,3-thiazol-2-yl)ethyl]amino}propyl]pyrrolidin-1-yl}-5-methyl-1-oxoheptan-4-yl](methyl)amino}-3-methyl-1-oxobutan-2-yl]-2-methylpiperidine-2-carboxamide]
[1]
  IC50: 0.283 nM

## CC[C@H](C)[C@@H]([C@@H](CC(=O)N1CCC[C@H]1[C@H](OC)[C@@H](C)C(=O)N[C@@H](Cc1ccccc1)C(=O)OC(C)(C)C)OC)N(C)C(=O)[C@@H](NC(=O)C(C)(C)NC)C(C)C [#130, N,2-dimethylalanyl-N-[(3R,4S,5S)-1-{(2S)-2-[(1R,2R)-3-{[(2S)-1-tert-butoxy-1-oxo-3-phenylpropan-2-yl]amino}-1-methoxy-2-methyl-3-oxopropyl]pyrrolidin-1-yl}-3-methoxy-5-methyl-1-oxoheptan-4-yl]-N-methyl-L-valinamide]
[1]
  IC50: 0.076 nM

## HERCEPTIN®: trastuzumab, monoclonal antibody that interferes with the HER2/neu receptor [reference compound]
[2]
  in vitro potency: no significant in vitro potency
[3]
  in vivo efficacy: no significant in vitro potency or in vivo efficacy

## CC[C@H](C)[C@@H]([C@@H](CC(=O)N1CCC[C@H]1[C@H](OC)[C@@H](C)C(=O)N[C@@H](Cc1ccccc1)C(=O)Nc1ccc(-c2nc3cc(F)ccc3s2)cc1C)OC)N(C)C(=O)[C@@H](NC(=O)C(C)(C)N)C(C)C [#235]
[1]
  IC50: 1.32 nM
